The subject of this data set is isolated renal cortical cells (IRCC). Put plainly: LDH release from isolated renal cortical cells. The settings on record: for Effect of pretreatment on 4-A2CP cytotoxicity: 4-A2CP 0.5 and 1.0 mM, pretreatment concentration and time per Table 1.

`Nc1ccc(O)cc1` [4-AP, 4-aminophenol]: the “Cytotoxicity (LDH release) in words” value (aminophenol 0.5 mM, IRCC, 1 h (Fig. 2)) is “Cytotoxicity was not observed”. `Cn1cc[nH]c1=S` [Methimazole]: the “Effect of pretreatment on 4-A2CP cytotoxicity” value is “No alteration”. Still for that read-out and setting: to `CC(=O)N1CCN(c2ccc(OCC3COC(Cn4ccnc4)(c4ccc(Cl)cc4Cl)O3)cc2)CC1` (stereo not drawn) [Ketoconazole] belongs “No alteration”.

Source of the values: paper PMC4402242 (Chemico-biological interactions, 2014).
